Results from PubChem BioAssay AID463079 (The Scripps Research Institute Molecular Screening Center, 2010).
The list shows a part of the results, in another mix than the full data. Active and inactive are the calls of the source.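 The calls were made as follows: active = inhibition above that plate's mean sample inhibition plus 3 SD (cut at about 26% in these data); inactive = the rest.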

Assay: nonselective Gq signaling inhibition in CHO cells – cell-based, fluorescence, Fluo-8 calcium dye, counter-screen for OX1R antagonist project, primary screen (AID 463079);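 also: 0% = ATP-challenged DMSO wells and 100% = DMSO wells without ATP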
Settings: parental CHO-K1, ATP-induced calcium, Fluo-8 fluorescence; at 5.6 µM; active compounds read high
For `O=[N+]([O-])c1cc([N+](=O)[O-])c(NCC2CCS(=O)(=O)C2)c([N+](=O)[O-])c1` (configuration not stated), the inhibition was inactive: -7.17%.
In the case of `CCOP(C)(=S)SCC(=O)NC(C)(CC)C(=O)O` (configuration not stated), the inhibition is reported as inactive: -7.44%.
In the case of `CP(=O)(Nc1ccc(SC(F)(F)F)cc1)Oc1ccc(F)cc1` (configuration not stated), the inhibition is reported as inactive: 0.58%.
With `Cc1ccccc1NP(C)(=O)Nc1ccccc1C` the inhibition was inactive: -13.8%.
For `CP(=O)(Nc1ccc2c(c1)OCCO2)Oc1ccccc1` (configuration not stated), the inhibition was inactive: -2.02%.
With `CCc1ccc(OP(C)(=O)Nc2cccnc2)cc1` (configuration not stated) the inhibition was inactive: -17%.
In the case of `CP(=O)(Oc1ccccc1)N1CCOC1=O` (configuration not stated), the inhibition is reported as inactive: 7.93%.
In the case of `O=C(OCCCN1CCCC1)C(O)(c1ccccc1)C1CCCCC1` (configuration not stated), the inhibition is reported as inactive: -8.88%.
For `COc1ccccc1OP(C)(=O)Nc1c(C)n(C)n(-c2ccccc2)c1=O` (configuration not stated), the inhibition was inactive: -18.7%.
In the case of `COc1ccc(OP(C)(=O)Nc2ccc(Br)cc2)cc1` (configuration not stated), the inhibition is reported as inactive: -5.94%.
For `CCN(CC)CC(O)COC(=O)C(O)(c1ccccc1)C1CCCCC1` (configuration not stated), the inhibition was inactive: -5.82%.
In the case of `CN(C)C(=O)c1c([N+](=O)[O-])cc([N+](=O)[O-])cc1[N+](=O)[O-]`, the inhibition is reported as inactive: -1.28%.
For `CP(=O)(Nc1ccc(Cl)cc1)Oc1ccc(F)cc1` (configuration not stated), the inhibition was inactive: -9.27%.
With `COc1ccccc1OP(C)(=O)Nc1ccccc1Br` (configuration not stated) the inhibition was inactive: -18%.
In the case of `CC(C)(C)c1ccc(OP(C)(=O)O)cc1`, the inhibition is reported as inactive: 10.8%.
For `CP(=O)(OC12CC3CC(CC(C3)C1)C2)OC12CC3CC(CC(C3)C1)C2`, the inhibition was inactive: -15.8%.
In the case of `CCOC(=O)c1ccc(NP(C)(=O)Oc2ccc(Cl)cc2)cc1` (configuration not stated), the inhibition is reported as inactive: -5.95%.
For `Nc1ccc2c(ccc3cccnc32)n1.O=[N+]([O-])c1cc([N+](=O)[O-])c(O)c([N+](=O)[O-])c1`, the inhibition was inactive: -14.9%.
In the case of `COc1ccc(OP(C)(=O)Nc2ccccc2Br)cc1` (configuration not stated), the inhibition is reported as inactive: -13.6%.
With `COc1ccccc1OP(C)(=O)Nc1ccc(C)c(C)c1` (configuration not stated) the inhibition was inactive: 3.11%.
With `Cc1cc(C)cc(OP(C)(=O)Nc2cccc(C(F)(F)F)c2)c1` (configuration not stated) the inhibition was inactive: -10.1%.
For `CP(=O)(Nc1ccc(Cl)cc1Cl)Oc1ccccc1` (configuration not stated), the inhibition was inactive: -5.22%.
With `CP(=O)(OCCOc1ccccc1)OCCOc1ccccc1` the inhibition was inactive: -3.19%.
In the case of `Cc1nc2ccc3ccccc3c2o1.O=[N+]([O-])c1cc([N+](=O)[O-])c(O)c([N+](=O)[O-])c1`, the inhibition is reported as inactive: -0.86%.
For `CN(C)CCOC(=O)C(O)(c1ccccc1)C1CCCC1` (configuration not stated), the inhibition was inactive: -6.54%.
For `COc1ccc(OP(C)(=O)Nc2ccccn2)cc1` (configuration not stated), the inhibition was inactive: -9.61%.
For `COc1ccccc1OP(C)(=O)Nc1ccc(Br)cc1` (configuration not stated), the inhibition was inactive: 10.2%.
In the case of `CCc1ccc(OP(C)(=O)O)cc1`, the inhibition is reported as inactive: -1.66%.
In the case of `COc1ccccc1OP(C)(=O)Nc1ccc(C)cc1C` (configuration not stated), the inhibition is reported as inactive: -9.79%.
For `CP(=O)(Nc1ccccn1)Oc1ccccc1` (configuration not stated), the inhibition was inactive: -0.52%.
With `Cc1c(NP(C)(=O)Oc2ccc(C(C)C)cc2)c(=O)n(-c2ccccc2)n1C` (configuration not stated) the inhibition was inactive: -9.47%.
With `O=[N+]([O-])c1cc([N+](=O)[O-])c(Nc2ccccn2)c([N+](=O)[O-])c1` the inhibition was inactive: -4.55%.
